Measurements reported in patent publication US9573956B2, “Compounds as dual inhibitors of phosphodiesterases and histone deacetylases” (FUNDACIÓN PARA LA INVESTIGACIÓN MÉDICA APLICADA, priority 2013, dated 2017).

The chains behind the UniProt entries cited, without tags or fusion partners. Residues count along the entry.
UniProt P27815, 1-647 isoform P27815-4: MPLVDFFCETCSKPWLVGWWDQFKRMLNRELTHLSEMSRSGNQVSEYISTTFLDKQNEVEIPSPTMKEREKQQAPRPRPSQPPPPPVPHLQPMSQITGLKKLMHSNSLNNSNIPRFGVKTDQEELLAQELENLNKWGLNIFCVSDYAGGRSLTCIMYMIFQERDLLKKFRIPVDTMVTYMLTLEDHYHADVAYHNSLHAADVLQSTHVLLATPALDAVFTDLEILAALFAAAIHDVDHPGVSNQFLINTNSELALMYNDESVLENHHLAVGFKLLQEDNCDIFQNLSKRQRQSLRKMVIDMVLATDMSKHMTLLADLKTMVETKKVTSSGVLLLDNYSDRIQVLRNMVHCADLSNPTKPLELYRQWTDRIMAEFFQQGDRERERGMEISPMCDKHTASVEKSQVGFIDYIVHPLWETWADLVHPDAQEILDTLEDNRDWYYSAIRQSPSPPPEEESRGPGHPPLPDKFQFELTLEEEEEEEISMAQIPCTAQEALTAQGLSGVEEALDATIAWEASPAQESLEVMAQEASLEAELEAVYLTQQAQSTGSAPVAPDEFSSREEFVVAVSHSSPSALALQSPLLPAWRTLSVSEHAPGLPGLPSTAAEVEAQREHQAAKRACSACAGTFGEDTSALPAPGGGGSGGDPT

Target: T1, PDE4A1 (Homo sapiens, UniProt P27815)
T1 construct: they are full-length with N-terminal GST tag; GST (N); purchased BPS Biosciences 60040; host or cells: baculovirus infected Sf9 cells
Test: PDE enzyme activity assay (HTRF cGMP), PDE4A1
Format: biochemical
Conditions: recombinant enzyme; read-out: PDE4A1 inhibition (IC50)

IC50: > 10 µM
SMILES: CN1CC(=O)N2[C@H](c3ccc4c(c3)OCO4)c3[nH]c4ccccc4c3C[C@@H]2C1=O [Tadalafil, reference compound]
